Target: T1, AII-2 receptor (Rattus norvegicus, UniProt P35351)
T1 sequence (P35351 1-363): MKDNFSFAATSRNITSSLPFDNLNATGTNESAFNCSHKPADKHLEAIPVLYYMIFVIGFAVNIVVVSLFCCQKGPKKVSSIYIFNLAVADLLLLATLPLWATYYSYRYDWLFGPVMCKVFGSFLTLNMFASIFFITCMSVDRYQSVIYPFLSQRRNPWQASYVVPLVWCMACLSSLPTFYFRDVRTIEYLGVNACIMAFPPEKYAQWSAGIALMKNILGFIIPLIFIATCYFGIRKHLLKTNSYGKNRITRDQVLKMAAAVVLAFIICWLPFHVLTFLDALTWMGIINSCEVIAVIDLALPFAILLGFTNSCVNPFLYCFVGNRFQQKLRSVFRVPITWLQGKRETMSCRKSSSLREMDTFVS

By UniProt entry, the sequences of proteins in these tests, tags left out. Where a name states a change or a piece, a line headed by the entry shows the natural chain unless it says otherwise.
UniProt P01019: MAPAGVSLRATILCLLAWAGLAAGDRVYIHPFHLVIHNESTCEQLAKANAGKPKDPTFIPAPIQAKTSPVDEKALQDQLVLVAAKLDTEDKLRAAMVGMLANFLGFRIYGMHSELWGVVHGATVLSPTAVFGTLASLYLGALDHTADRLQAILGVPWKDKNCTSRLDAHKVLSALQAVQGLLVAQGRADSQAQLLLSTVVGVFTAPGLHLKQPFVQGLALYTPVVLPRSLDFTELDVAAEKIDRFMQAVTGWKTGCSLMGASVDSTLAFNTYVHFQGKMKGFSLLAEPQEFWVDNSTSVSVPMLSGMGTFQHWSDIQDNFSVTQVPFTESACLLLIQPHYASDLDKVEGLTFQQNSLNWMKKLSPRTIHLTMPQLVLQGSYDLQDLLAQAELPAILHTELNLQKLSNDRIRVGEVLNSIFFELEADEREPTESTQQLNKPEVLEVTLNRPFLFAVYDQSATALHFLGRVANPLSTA

“AII: Angiotensin II (AII), a circulating hormone, now thought to act as a neuropeptide in the central nervous system (DRVYIHPF; Angiotensin-2; UniProt P01019 25-32, looked up)” showed an IC50 of 0.6 nM.
